# Laboratory results: PubChem BioAssay AID1274 (Emory University Molecular Libraries Screening Center, 2008)
# By UniProt entry, the sequences of proteins in these tests, tags left out. Where a name states a change or a piece, a line headed by the entry shows the natural chain unless it says otherwise.
# UniProt P14598: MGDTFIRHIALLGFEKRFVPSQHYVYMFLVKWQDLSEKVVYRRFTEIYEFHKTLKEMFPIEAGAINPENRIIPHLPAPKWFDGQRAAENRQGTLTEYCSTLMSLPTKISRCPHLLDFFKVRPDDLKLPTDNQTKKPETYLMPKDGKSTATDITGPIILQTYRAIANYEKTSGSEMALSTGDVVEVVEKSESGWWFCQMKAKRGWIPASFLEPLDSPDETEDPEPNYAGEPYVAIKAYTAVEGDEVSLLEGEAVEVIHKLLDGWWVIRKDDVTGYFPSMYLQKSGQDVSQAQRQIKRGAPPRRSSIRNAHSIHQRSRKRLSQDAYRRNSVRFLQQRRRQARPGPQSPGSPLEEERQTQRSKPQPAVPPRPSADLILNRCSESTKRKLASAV
# The entries are a selection whose mix differs from that of the whole data set. Activity calls are given as the source filed them.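 The calls were made as follows: active = inhibition above about 30% (limit read from the data); inactive = the rest.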
# Biological target: Neutrophil cytosol factor 1 (Homo sapiens) (UniProt P14598)
# Experiment: blockers of p47phox binding to p22phox – biochemical, uHTS, NADPH oxidase regulatory subunit, primary screen (AID 1274);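 also: 0% = p47phox with labelled peptide and 100% = labelled peptide alone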
# Settings: p47phox/p22phox peptide binding, fluorescence polarization, 2 h; at 24.7 µM; hits give high values
row,SMILES,inhibition
1,Cc1ccc(OP(=O)(Nc2ccccn2)Oc2ccc(C)cc2)cc1,inactive: -5.99%
2,CC(=O)NC(SC(=S)N(CC(C)C)CC(C)C)C(Cl)(Cl)Cl (configuration not stated),inactive: 6.56%
3,CCC(=O)N1C2C3N(C(=O)CC)C1C1N(C(=O)CC)C(C(N1C(=O)CC)N3C(=O)CC)N2C(=O)CC,inactive: -3.92%
4,CC(C)(C)C(=O)NC(Sc1ccccc1)C(Cl)(Cl)Cl (configuration not stated),inactive: -3.31%
5,O=P1(Nc2nc3ccc(Cl)cc3s2)COc2ccccc2O1 (configuration not stated),inactive: -10.2%
6,CCOc1ccc(C2=NCC(CBr)S2)cc1 (configuration not stated),inactive: 2.82%
7,CC(=O)Nc1ccc([As](=O)(O)O)c(O)c1,inactive: 4.48%
8,CC(=O)Nc1ccc(Oc2c([N+](=O)[O-])cc([N+](=O)[O-])cc2[N+](=O)[O-])cc1,inactive: 0.24%
9,C[C@H]1OP(=O)(Oc2ccccc2)C[C@@H]2O[C@@H]21 (some centres not stated),inactive: -11.3%
10,C[C@@H]1C=CCP(=O)(Oc2ccccc2)O1 (some centres not stated),inactive: -14%
11,c1nnnn1CCn1cnnn1,inactive: -11.9%
12,CC(C)C(=O)NC(Sc1ccccc1)C(Cl)(Cl)Cl (configuration not stated),inactive: -1.53%
13,O=P(Nc1nccs1)(c1ccccc1)c1ccccc1,inactive: -14%
14,O=P(Nc1nc2ccccc2s1)(c1ccccc1)c1ccccc1,inactive: -12.4%
15,C[C@H]1OP(=O)(Oc2ccccc2)[C@H](O)[C@H](O)[C@H]1N=[N+]=[N-] (some centres not stated),inactive: -3.75%
16,O=P(Nc1ccccn1)(c1ccc(Br)cc1)c1ccc(Br)cc1,inactive: -3.41%
17,C(Cc1nn[nH]n1)Cc1nn[nH]n1,inactive: -7.03%
18,Nc1ccc([As](=O)(O)c2ccc([N+](=O)[O-])cc2)cc1,inactive: -7.6%
19,O=C(OC1CN2CCC1CC2)c1cccc(Cl)c1 (configuration not stated),inactive: -8%
20,O=[N+]([O-])c1ncn(CCn2cnc([N+](=O)[O-])n2)n1,inactive: -13.5%
21,CC(=O)NC(SC(=S)N(C)C)C(Cl)(Cl)Cl (configuration not stated),inactive: -0.62%
22,O=[As](O)(c1ccccc1)c1ccc(O)cc1,inactive: 1.49%
